Source: ChEMBL document CHEMBL1128962, “Serotoninergic 5-HT3 and 5-HT4 receptor activities of dihydrobenzofuran carboxylic acid derivatives” (Bioorg Med Chem Lett, 1996)

By UniProt entry, the sequences of proteins in these tests, tags left out. Where a name states a change or a piece, a line headed by the entry shows the natural chain unless it says otherwise.
UniProt Q62758: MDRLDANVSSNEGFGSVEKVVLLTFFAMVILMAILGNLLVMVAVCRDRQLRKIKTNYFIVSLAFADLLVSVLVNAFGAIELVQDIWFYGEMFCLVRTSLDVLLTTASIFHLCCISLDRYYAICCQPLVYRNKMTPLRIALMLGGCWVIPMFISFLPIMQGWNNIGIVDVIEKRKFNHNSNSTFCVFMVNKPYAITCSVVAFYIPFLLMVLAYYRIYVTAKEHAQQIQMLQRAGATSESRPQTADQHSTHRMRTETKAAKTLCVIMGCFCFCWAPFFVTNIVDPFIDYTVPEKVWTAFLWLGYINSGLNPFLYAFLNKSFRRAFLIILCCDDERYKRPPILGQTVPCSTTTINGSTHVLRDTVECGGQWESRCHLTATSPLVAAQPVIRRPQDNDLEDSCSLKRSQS

What was measured:
[1] = biological target: T1, 5-hydroxytryptamine receptor 4 (Rattus norvegicus, UniProt Q62758); experiment: In vitro relaxation of carbachol pre-contracted rat oesophageal TMM.; format: functional
[2] = biological target: T1, 5-hydroxytryptamine receptor 4; experiment: Binding affinity at 5-hydroxytryptamine 4 receptor in rat striatum by [3H]GR-113808 displacement.

Compound	EC50 [1] [nM]	Ki [2] [nM]
Nc1c(Cl)cc(C(=O)O[C@@H]2CN3CCC2CC3)c2c1CCO2	11.1	8.3
Nc1c(Cl)cc(C(=O)O[C@H]2CN3CCC2CC3)c2c1CCO2	385	93
